These are literature values, as cited in patent US11473070B2, “Increased polypeptide production yields of butyrylcholinesterase polypeptides for therapeutic use” (dated 2022).

For orientation: kcat means the number of substrate molecules converted per active site and unit of time at saturation.

Series [1] has as its system human butyrylcholinesterase (BChE), wild type, SEQ ID NO: 10. Conditions: naturally occurring (−)-cocaine, ref. [7].
The test system of series [2] is Fc(M3)-G6S-CocH3, fusion of Fc(M3) (A1V/D142E/L144M) with human BChE mutant A199S/F227A/S287G/A328W/Y332G, SEQ ID NO: 16-SEQ ID NO: 37-SEQ ID NO: 13. As to conditions: reported in ref. [32].

`COC(=O)[C@H]1[C@@H](OC(=O)c2ccccc2)C[C@@H]2CC[C@H]1N2C`: the kcat in series [1] is 0.0683 s⁻¹; in series [2], 94.9 ± 3.97 s⁻¹.
